Reference: ChEMBL document CHEMBL6087471, “A Collection of Novel Antitumor Agents That Regulate Lipid Metabolism in the Tumor Microenvironment” (J Med Chem, 2025)

Molecular target: Autotaxin (Homo sapiens, UniProt Q13822)

- IC50: 20 nM
Compound: CCCCCCCC/C=C\CCCCCCCC(=O)OCC(O)COP(=O)(O)O (stereo unspecified)
